Data: paper PMC6895048, “4,5-Disubstituted 1,2,3-triazoles: Effective Inhibition of Indoleamine 2,3-Dioxygenase 1 Enzyme Regulates T cell Activity and Mitigates Tumor Growth” (Scientific Reports, 2019)
Values belong to the compound of their own block, whether it stands above or below them.

Amino acid sequences for entries named in this document (tags omitted).
UniProt P14902, whole entry: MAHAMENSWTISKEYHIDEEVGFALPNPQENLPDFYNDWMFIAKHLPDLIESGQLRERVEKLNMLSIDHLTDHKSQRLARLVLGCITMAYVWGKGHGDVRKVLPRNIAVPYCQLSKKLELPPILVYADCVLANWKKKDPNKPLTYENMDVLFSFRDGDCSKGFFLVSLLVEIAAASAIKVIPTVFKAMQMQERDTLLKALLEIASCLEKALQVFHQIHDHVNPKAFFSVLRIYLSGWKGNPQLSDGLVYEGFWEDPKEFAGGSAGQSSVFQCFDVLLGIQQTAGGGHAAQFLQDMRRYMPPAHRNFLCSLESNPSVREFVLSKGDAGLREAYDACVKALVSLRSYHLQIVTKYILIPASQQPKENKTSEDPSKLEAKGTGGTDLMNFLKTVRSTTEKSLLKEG
UniProt P48775, whole entry: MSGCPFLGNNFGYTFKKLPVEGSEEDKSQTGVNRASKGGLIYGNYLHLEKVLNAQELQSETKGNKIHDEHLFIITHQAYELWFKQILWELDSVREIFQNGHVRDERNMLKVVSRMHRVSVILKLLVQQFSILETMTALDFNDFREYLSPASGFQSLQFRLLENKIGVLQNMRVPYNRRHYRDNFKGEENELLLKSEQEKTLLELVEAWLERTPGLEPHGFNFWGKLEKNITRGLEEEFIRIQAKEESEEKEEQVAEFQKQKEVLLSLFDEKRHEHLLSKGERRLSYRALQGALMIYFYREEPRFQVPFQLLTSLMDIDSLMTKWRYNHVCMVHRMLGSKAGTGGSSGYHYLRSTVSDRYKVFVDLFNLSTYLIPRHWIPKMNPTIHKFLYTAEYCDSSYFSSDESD

Legend:
[1] = biological target: purified human IDO1 enzyme (Homo sapiens, UniProt P14902); test: IDO1 inhibition assay by the spectrometric method (pDMAB); assay type: biochemical; conditions: read-out: hIDO1 IC50, spectrophotometric, mean of three independent assays
IDO1 [2] = biological target: T1, IDO1 (Homo sapiens, UniProt P14902); test: Kynurenine assay by HPLC analysis, IDO1; conditions: for % Of inhibition for IDO1 enzyme: HPLC
[3] = biological target: purified human TDO enzyme (Homo sapiens, UniProt P48775); test: TDO inhibition assay by the spectrometric method; conditions: spectrophotometric
TDO enzyme = TDO enzyme (Homo sapiens, UniProt P48775); test: HPLC based TDO inhibition assay
IDO1 [4] = biological target: T1, IDO1; test: Cellular IDO1 activity assay in IFN-γ induced MDA-MB-231 cells; assay type: cell-based; conditions: read-out: MDA-MB-231 cells EC50; IDO1 expression induced by human IFN-γ (50 ng/mL); mean of three

- IC50 [1]: 2010 nM
SMILES: Nc1ccccc1NC(=O)c1n[nH]nc1-c1ccc(Cl)c(Cl)c1

- IC50 [1]: 19400 nM
SMILES: O=C(Nc1ccccc1)c1n[nH]nc1-c1ccc(Cl)c(Cl)c1

- IC50 [1]: 271 nM
- IC50 (IDO1 [2]; HPLC based IDO1 inhibition assay): 172 nM
- % Of inhibition for IDO1 enzyme (IDO1 [2]; 32 nM): 20%
- % Of inhibition for IDO1 enzyme (IDO1 [2]; 160 nM): 48%
- % Of inhibition for IDO1 enzyme (IDO1 [2]; 800 nM): 79%
- % Of inhibition for IDO1 enzyme (IDO1 [2]; 4 µM): 84%
- % Of inhibition for IDO1 enzyme (IDO1 [2]; 20 µM): 86%
- % Of inhibition for IDO1 enzyme (IDO1 [2]; 100 µM): 88%
- % of Enzyme inhibition (TDO) ([3]; 32 nM): 4%
- % of Enzyme inhibition (TDO) ([3]; 160 nM): 6%
- % of Enzyme inhibition (TDO) ([3]; 800 nM): 7%
- % of Enzyme inhibition (TDO) ([3]; 4 µM): 26%
- % of Enzyme inhibition (TDO) ([3]; 20 µM): 31%
- % of Enzyme inhibition (TDO) ([3]; 100 µM): 36%
- % Of inhibition for TDO enzyme (TDO enzyme; 32 nM): 9%
- % Of inhibition for TDO enzyme (TDO enzyme; 160 nM): 19%
- % Of inhibition for TDO enzyme (TDO enzyme; 800 nM): 33%
- % Of inhibition for TDO enzyme (TDO enzyme; 4 µM): 56%
- % Of inhibition for TDO enzyme (TDO enzyme; 20 µM): 64%
- % Of inhibition for TDO enzyme (TDO enzyme; 100 µM): 70%
- EC50 (IDO1 [4]): 182 nM
SMILES: Nc1ccccc1NC(=O)c1n[nH]nc1-c1ccc(F)c(F)c1
